Data from publication PMC4577729, “7-(Pyrazol-4-yl)-3H-imidazo[4,5-b]pyridine-based derivatives for kinase inhibition: Co-crystallisation studies with Aurora-A reveal distinct differences in the orientation of the pyrazole N1-substituent” (Bioorganic & Medicinal Chemistry Letters, 2015).

Sequences of proteins named here, by UniProt entry; tags and fusion partners are left off. Residues count along the entry.
UniProt Q15418, whole entry: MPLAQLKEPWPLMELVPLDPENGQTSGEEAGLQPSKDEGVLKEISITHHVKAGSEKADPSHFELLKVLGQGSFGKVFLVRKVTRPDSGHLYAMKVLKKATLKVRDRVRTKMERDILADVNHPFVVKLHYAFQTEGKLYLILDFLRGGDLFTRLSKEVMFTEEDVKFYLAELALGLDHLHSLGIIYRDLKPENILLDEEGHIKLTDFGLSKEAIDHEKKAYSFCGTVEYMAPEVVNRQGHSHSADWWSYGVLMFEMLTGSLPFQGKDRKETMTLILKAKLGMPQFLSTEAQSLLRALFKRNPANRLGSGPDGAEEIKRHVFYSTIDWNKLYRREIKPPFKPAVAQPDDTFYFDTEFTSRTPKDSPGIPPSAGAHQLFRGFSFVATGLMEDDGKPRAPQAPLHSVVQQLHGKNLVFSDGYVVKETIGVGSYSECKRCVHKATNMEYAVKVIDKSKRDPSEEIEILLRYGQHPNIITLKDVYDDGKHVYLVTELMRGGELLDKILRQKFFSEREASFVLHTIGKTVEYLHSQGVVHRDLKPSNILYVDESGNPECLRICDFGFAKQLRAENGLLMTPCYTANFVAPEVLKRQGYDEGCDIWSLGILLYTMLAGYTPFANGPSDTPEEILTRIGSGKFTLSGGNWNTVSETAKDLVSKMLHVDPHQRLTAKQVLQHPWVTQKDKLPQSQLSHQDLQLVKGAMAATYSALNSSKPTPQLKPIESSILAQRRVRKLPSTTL
UniProt O43318, 1-303 limits assumed: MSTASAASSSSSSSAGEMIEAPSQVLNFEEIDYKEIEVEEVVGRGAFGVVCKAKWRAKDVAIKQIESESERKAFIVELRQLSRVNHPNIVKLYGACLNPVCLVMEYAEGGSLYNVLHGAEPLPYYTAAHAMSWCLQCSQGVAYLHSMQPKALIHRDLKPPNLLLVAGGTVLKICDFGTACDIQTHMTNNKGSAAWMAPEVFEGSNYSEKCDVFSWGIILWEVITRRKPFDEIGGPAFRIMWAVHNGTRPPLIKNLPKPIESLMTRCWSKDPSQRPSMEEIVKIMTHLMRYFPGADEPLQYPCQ
UniProt P45983, whole entry: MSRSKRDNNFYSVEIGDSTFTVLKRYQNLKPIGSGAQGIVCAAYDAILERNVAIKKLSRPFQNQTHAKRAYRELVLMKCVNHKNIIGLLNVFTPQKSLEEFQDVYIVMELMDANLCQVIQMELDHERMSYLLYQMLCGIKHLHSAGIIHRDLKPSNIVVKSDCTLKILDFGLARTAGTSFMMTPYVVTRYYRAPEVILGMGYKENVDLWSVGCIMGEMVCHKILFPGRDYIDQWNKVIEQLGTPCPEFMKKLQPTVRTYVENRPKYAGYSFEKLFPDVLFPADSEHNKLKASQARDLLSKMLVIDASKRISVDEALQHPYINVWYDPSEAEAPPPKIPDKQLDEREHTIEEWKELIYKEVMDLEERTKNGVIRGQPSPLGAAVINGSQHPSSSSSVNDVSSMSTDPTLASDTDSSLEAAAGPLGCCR
UniProt P49760, whole entry: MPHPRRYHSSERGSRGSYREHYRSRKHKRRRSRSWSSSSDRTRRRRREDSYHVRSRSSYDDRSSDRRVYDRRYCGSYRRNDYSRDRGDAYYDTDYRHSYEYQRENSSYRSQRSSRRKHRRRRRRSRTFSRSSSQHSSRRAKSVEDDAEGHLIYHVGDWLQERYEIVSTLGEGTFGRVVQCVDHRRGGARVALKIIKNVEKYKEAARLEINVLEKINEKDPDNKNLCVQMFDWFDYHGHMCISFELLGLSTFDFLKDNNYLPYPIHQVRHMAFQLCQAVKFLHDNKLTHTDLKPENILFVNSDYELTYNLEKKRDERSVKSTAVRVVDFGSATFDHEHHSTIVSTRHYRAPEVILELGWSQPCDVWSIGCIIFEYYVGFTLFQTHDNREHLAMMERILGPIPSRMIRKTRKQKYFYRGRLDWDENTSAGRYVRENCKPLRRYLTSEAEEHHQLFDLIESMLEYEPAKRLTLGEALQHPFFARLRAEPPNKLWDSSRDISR
UniProt P29317, 24-976 limits assumed: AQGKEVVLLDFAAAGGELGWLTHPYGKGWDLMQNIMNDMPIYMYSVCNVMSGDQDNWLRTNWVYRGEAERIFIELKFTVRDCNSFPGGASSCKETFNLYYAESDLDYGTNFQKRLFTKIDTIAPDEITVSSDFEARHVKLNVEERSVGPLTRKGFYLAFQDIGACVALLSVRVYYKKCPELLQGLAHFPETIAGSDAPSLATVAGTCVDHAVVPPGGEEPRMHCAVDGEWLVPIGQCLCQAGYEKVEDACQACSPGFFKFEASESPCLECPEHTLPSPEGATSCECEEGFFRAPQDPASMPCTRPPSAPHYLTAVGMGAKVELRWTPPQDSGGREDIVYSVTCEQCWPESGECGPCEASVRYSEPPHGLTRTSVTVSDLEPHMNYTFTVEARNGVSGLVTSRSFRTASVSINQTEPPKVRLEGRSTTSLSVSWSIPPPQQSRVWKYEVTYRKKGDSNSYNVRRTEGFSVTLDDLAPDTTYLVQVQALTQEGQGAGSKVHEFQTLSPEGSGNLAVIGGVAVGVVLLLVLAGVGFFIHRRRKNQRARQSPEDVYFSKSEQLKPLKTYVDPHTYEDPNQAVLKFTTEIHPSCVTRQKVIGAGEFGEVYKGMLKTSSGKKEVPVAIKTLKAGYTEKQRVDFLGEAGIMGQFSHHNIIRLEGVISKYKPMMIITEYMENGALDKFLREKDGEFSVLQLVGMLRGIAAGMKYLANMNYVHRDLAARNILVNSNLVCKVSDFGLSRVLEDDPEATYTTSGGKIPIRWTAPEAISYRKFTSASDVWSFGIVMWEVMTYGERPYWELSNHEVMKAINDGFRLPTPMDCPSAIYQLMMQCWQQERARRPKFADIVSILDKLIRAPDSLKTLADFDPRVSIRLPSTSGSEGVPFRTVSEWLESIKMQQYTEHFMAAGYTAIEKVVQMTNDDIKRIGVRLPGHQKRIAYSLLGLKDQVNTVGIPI
UniProt O14757, whole entry: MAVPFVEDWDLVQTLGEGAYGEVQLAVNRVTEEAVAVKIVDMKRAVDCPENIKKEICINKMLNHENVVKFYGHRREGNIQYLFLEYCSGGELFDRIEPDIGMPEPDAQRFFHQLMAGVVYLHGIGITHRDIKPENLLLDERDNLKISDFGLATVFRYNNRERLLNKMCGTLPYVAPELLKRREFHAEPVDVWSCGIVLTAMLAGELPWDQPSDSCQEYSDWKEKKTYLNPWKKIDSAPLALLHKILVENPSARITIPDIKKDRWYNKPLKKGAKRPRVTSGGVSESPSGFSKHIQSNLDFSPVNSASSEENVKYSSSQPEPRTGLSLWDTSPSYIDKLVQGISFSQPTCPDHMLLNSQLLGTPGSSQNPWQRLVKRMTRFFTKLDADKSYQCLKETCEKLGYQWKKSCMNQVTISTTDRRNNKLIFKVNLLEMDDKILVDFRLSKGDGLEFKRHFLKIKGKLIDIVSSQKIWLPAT
UniProt O15264, whole entry: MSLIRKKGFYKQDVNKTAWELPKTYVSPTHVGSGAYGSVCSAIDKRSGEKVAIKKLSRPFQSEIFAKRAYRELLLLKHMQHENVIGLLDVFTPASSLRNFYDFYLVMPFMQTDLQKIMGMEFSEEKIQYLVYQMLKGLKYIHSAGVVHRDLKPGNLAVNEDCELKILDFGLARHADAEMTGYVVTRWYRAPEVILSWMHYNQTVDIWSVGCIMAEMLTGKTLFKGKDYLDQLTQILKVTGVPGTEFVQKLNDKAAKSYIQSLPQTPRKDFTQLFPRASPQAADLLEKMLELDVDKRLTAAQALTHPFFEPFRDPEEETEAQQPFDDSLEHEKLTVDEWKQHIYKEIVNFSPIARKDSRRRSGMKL
UniProt Q96GD4, whole entry: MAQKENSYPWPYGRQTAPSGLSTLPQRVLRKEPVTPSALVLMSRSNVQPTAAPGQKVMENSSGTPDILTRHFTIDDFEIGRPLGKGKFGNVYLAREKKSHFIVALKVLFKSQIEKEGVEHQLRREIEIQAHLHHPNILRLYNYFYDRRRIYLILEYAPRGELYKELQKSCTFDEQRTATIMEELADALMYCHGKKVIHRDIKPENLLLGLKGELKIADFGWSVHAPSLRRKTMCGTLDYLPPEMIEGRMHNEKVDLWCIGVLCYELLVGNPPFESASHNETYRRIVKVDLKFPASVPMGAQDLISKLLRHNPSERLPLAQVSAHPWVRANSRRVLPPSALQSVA
UniProt P28482, whole entry: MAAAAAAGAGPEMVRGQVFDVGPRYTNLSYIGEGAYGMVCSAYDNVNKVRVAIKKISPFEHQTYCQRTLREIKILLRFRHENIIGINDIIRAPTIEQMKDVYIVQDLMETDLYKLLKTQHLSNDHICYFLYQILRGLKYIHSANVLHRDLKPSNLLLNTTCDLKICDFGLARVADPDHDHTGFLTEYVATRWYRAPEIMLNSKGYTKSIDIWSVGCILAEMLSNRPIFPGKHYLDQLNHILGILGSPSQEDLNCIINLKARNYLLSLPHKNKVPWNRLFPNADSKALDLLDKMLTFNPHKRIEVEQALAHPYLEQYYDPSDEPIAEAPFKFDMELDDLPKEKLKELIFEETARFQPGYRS
UniProt O14920, whole entry: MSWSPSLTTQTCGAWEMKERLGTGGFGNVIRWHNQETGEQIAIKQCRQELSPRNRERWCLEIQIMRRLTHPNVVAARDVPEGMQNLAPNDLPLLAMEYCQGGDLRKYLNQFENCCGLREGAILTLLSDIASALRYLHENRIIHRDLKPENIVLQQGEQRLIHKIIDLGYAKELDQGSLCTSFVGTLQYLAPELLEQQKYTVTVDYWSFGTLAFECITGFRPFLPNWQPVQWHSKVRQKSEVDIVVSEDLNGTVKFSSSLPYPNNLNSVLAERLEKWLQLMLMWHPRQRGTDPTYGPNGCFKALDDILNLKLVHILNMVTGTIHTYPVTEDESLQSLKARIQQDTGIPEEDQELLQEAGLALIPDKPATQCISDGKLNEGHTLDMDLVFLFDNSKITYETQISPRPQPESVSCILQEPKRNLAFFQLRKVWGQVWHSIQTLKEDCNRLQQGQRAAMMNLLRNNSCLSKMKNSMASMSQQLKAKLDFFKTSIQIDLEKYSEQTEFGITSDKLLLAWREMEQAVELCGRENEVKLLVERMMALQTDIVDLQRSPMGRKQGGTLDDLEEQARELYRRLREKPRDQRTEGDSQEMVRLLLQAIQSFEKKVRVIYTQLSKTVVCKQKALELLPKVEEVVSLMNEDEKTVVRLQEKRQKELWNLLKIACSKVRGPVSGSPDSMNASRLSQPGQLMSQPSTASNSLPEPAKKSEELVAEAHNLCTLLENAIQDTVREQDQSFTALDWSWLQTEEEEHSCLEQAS
UniProt Q9NWZ3, whole entry: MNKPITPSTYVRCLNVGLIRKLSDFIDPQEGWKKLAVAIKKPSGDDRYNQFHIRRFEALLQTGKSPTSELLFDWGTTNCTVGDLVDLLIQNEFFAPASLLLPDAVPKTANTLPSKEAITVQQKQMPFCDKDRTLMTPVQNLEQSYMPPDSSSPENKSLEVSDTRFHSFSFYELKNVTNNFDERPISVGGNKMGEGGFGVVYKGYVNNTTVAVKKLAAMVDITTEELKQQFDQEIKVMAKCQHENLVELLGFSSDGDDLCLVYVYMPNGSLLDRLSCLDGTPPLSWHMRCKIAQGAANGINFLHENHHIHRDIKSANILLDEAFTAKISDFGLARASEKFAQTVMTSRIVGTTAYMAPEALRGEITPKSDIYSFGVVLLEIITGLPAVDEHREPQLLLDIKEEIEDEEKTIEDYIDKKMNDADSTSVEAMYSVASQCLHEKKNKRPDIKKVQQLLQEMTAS
UniProt O00418, whole entry: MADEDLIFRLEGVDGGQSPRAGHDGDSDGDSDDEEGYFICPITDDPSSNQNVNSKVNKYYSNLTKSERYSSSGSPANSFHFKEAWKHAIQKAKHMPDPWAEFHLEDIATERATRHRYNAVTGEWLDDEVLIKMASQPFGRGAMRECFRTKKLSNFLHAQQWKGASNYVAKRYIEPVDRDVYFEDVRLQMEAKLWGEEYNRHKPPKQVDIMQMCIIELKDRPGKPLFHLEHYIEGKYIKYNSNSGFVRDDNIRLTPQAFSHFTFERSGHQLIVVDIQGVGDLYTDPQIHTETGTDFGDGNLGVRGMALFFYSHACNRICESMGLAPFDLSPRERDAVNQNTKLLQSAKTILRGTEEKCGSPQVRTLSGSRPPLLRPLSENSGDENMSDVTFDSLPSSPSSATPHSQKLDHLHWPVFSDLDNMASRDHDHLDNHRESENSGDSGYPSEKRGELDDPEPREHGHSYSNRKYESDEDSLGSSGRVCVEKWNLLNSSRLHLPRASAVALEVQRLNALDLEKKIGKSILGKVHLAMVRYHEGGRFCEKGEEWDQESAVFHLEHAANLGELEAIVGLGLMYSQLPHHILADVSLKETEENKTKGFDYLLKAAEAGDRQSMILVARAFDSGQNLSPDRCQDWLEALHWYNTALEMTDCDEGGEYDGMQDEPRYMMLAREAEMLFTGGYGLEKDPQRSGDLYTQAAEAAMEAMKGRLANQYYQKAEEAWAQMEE

Key:
[1] = Mouse liver microsomal stability; type: in vitro ADME; settings: percentage of compound metabolised after a 30 min incubation, mouse liver microsomes
IRR = IRR (Homo sapiens, UniProt P14616); assay: Kinase selectivity profiling; type: biochemical; settings: 1 µM, assay duplicates
RSK1 = RSK1 (Homo sapiens, UniProt Q15418); assay: Kinase selectivity profiling; type: biochemical; settings: 1 µM, assay duplicates
PAK6 = PAK6 (Homo sapiens, UniProt Q9NQU5); assay: Kinase selectivity profiling; type: biochemical; settings: 1 µM, assay duplicates
TAK1 = TAK1 (Homo sapiens, UniProt O43318); assay: Kinase selectivity profiling; type: biochemical; settings: 1 µM, assay duplicates
GCK = GCK (Homo sapiens, UniProt Q12851); assay: Kinase selectivity profiling; type: biochemical; settings: 1 µM, assay duplicates
JNK1 = JNK1 (Homo sapiens, UniProt P45983); assay: Kinase selectivity profiling; type: biochemical; settings: 1 µM, assay duplicates
AMPK = assay: Kinase selectivity profiling; type: biochemical; settings: 1 µM, assay duplicates
BTK = BTK (Homo sapiens, UniProt Q06187); assay: Kinase selectivity profiling; type: biochemical; settings: 1 µM, assay duplicates
EPH-B2 = EPH-B2 (Homo sapiens, UniProt P29323); assay: Kinase selectivity profiling; settings: 1 µM, assay duplicates
CLK2 = CLK2 (Homo sapiens, UniProt P49760); assay: Kinase selectivity profiling; settings: 1 µM, assay duplicates
DAPK1 = DAPK1 (Homo sapiens, UniProt P53355); assay: Kinase selectivity profiling; settings: 1 µM, assay duplicates
EPH-A2 = EPH-A2 (Homo sapiens, UniProt P29317); assay: Kinase selectivity profiling; type: biochemical; settings: 1 µM, assay duplicates
Protocol: (§1) [20] Kinase selectivity profiling for compounds 7a, 7d, 14d and 14g was carried out at the International Centre for Protein Kinase Profiling, Division of Signal Transduction Therapy, University of Dundee.
(§2) Table S1: Kinase selectivity profiling of compounds 7a and 7d in a 102-kinase panel screened at a concentration of 1 µM.
(§3) Table S2: Kinase selectivity profiling of compounds 14d and 14g in a 105-kinase panel screened at a concentration of 1 µM.

IR = IR (Homo sapiens, UniProt P06213); assay: Kinase selectivity profiling; type: biochemical; settings: 1 µM, assay duplicates
Protocol: as §1, §2, §3

CHK1 = CHK1 (Homo sapiens, UniProt O14757); assay: Kinase selectivity profiling; type: biochemical; settings: 1 µM, assay duplicates
Protocol: as §1, §2, §3

p38d MAPK = p38d MAPK (Homo sapiens, UniProt O15264); assay: Kinase selectivity profiling; type: biochemical; settings: 1 µM, assay duplicates
Protocol: as §1, §2, §3

IKKe = IKKe (Homo sapiens, UniProt Q14164); assay: Kinase selectivity profiling; type: biochemical; settings: 1 µM, assay duplicates
Protocol: as §1, §2, §3

Aurora B [2] = target: T1, Aurora B (Homo sapiens, UniProt Q96GD4); assay: Kinase selectivity profiling; type: biochemical; settings: 1 µM, assay duplicates
Protocol: as §1, §2, §3

RIPK2 = RIPK2 (Homo sapiens, UniProt O43353); assay: Kinase selectivity profiling; type: biochemical; settings: 1 µM, assay duplicates
Protocol: as §1, §2, §3

ERK2 = ERK2 (Homo sapiens, UniProt P28482); assay: Kinase selectivity profiling; type: biochemical; settings: 1 µM, assay duplicates
Protocol: as §1, §2, §3

HIPK3 = HIPK3 (Homo sapiens, UniProt Q9H422); assay: Kinase selectivity profiling; type: biochemical; settings: 1 µM, assay duplicates
Protocol: as §1, §2, §3

IKKb = IKKb (Homo sapiens, UniProt O14920); assay: Kinase selectivity profiling; type: biochemical; settings: 1 µM, assay duplicates
Protocol: as §1, §2, §3

CK1 = CK1 (Homo sapiens, UniProt P48730); assay: Kinase selectivity profiling; type: biochemical; settings: 1 µM, assay duplicates
Protocol: as §1, §2, §3

IRAK4 = IRAK4 (Homo sapiens, UniProt Q9NWZ3); assay: Kinase selectivity profiling; type: biochemical; settings: 1 µM, assay duplicates
Protocol: as §1, §2, §3

PKA = PKA (Homo sapiens, UniProt P17612); assay: Kinase selectivity profiling; type: biochemical; settings: 1 µM, assay duplicates
Protocol: as §1, §2, §3

EF2K = EF2K (Homo sapiens, UniProt O00418); assay: Kinase selectivity profiling; type: biochemical; settings: 1 µM, assay duplicates
Protocol: as §1, §2, §3

[3] = Human liver microsomal stability; type: in vitro ADME; settings: percentage of compound metabolised after a 30 min incubation, human liver microsomes
[4] = In vivo mouse pharmacokinetic profiling
Kinetic solubility = settings: phosphate buffer, pH = 6.8
[5] = Mouse plasma protein binding
[6] = Protein binding in microsomal incubations (MLM)
[7] = Protein binding in microsomal incubations (HLM)
Aurora B [8] = target: T1, Aurora B; assay: Histone H3 phosphorylation at S10 in HeLa cells; settings: read-out: p-HH3 IC50 (histone H3 phosphorylation at S10)
Aurora A = Aurora A (Homo sapiens, UniProt O14965); assay: Aurora-A autophosphorylation at T288 in HeLa cells; settings: read-out: p-T288 IC50 (Aurora-A autophosphorylation)

| SMILES | EPH-A2 % activity remaining (EPH-A2) [%] | IR % activity remaining (IR) [%] | CHK1 % activity remaining (CHK1) [%] | p38d MAPK % activity remaining (p38d MAPK) [%] | IKKe % activity remaining (IKKe) [%] | Aurora B % activity remaining (Aurora B [2]) [%] | RIPK2 % activity remaining (RIPK2) [%] | ERK2 % activity remaining (ERK2) [%] | HIPK3 % activity remaining (HIPK3) [%] | IKKb % activity remaining (IKKb) [%] | CK1 % activity remaining (CK1) [%] | IRAK4 % activity remaining (IRAK4) [%] | PKA % activity remaining (PKA) [%] | EF2K % activity remaining (EF2K) [%] | other results |
| --- | --- | --- | --- | --- | --- | --- | --- | --- | --- | --- | --- | --- | --- | --- | --- |
| CNCc1cccc(Cn2cc(-c3c(Cl)cnc4[nH]c(-c5cn(C)nc5C)nc34)cn2)c1 | 47 | 20 | 59 | 37 | 10 | 8 | 68 | 18 | 57 | 69 | 49 | 47 | 42 | 92 | MLM % met/30 min [1]: 53%; IRR % activity remaining (IRR): 23%; RSK1 % activity remaining (RSK1): 20%; PAK6 % activity remaining (PAK6): 65%; TAK1 % activity remaining (TAK1): 24%; GCK % activity remaining (GCK): 51%; JNK1 % activity remaining (JNK1): 26%; AMPK % activity remaining (AMPK): 18%; BTK % activity remaining (BTK): 13%; EPH-B2 % activity remaining (EPH-B2): 70%; CLK2 % activity remaining (CLK2): 3%; DAPK1 % activity remaining (DAPK1): 12%; HLM % met/30 min [3]: 38% |
| Cc1nn(C)cc1-c1nc2c(-c3cnn(Cc4ccc(Cl)cc4)c3)c(Cl)cnc2[nH]1 | 91 | 34 | 74 | 52 | 32 | 114 | 59 | 24 | 9 | 68 | 92 | 52 | 62 | 101 | oral bioavailability [4]: 16%; kinetic solubility (Kinetic solubility): < 0.1 µg/mL; mouse plasma protein binding [5]: > 99.9%; percentage unbound in MLM [6]: 0.50%; percentage unbound in HLM [7]: 0.50%; IC50 (Aurora B [8]): 330 nM; IC50 (Aurora A): 40 nM |
